{"source": "patent US7968561B2", "about": "“Steroidal compounds as steroid sulphatase inhibitors” (Sterix Limited, priority 2006, dated 2011)", "tested_on": "MCF-7STS cells (MCF-7 cells over expressing STS)", "experiment": "Growth of E2S-stimulated MCF-7STS xenograft tumours in nude mice", "type": "in vivo"}
{"smiles": "C[C@]12CCC3c4ccc(OS(N)(=O)=O)cc4CCC3C1CC(=O)N(CCC(F)(F)F)C2=O", "note": "(some centres unmarked) [STX1938, 3-Sulfomoyloxy-N-(3,3,3-trifluoropropyl)-16,17-seco-Estra-1,3,5(10)-triene-16,17-imide]", "values": [{"measurement": "growth of E2S stimulated tumours", "setting": "Study 1: 1 mg/kg and 10 mg/kg p.o., 5/7 days per week, nude mice", "result": "significantly reduced"}, {"measurement": "tumour growth", "setting": "Study 2: 1 mg/kg p.o. once per week for 7 weeks", "result": "significantly reduced"}]}
